1 molecule from patent US20090023773A1, “COMPOSITIONS AND METHODS FOR MODULATING GATED ION CHANNELS” (PainCeptor Pharma Corporation, priority 2007, published 2009) can be followed below.

By UniProt entry, the sequences of proteins in these tests, tags left out. Where a name states a change or a piece, a line headed by the entry shows the natural chain unless it says otherwise.
UniProt P78348: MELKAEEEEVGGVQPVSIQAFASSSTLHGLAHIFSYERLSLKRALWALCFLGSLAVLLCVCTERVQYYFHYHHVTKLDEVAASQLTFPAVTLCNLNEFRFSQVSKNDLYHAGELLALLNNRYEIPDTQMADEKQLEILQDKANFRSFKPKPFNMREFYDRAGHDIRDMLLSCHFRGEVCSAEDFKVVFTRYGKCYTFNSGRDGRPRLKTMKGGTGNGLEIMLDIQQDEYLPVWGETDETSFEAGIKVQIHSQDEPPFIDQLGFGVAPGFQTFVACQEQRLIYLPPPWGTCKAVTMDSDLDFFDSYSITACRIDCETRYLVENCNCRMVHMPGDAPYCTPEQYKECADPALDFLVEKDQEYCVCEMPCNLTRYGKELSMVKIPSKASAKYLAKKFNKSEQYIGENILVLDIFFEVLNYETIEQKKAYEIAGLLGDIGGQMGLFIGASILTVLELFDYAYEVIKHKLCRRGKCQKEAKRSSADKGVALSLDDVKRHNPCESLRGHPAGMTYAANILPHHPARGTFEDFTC

The target in the test is recombinant homomeric hASIC1a channels (Homo sapiens, UniProt P78348). Kind of test: Two-electrode voltage clamp in Xenopus laevis oocytes expressing gated ion channels (Example 4). The format is cell-based. The conditions noted are these: Table 2; generated using oocytes as in Example 4.

Turning to `c1ccc(CN2CCC(Oc3c4c(nc5ccccc35)CCCC4)CC2)cc1`, the IC50 is greater than 30 µM.
